Assay results taken from patent US4681872A (priority 1985, dated 1987).
≈ marks a conversion by molar mass, not a printed value.

System: E. coli JUHL
Conditions: BHI agar, 35°-37° C., 20-24 hours

CCC1OC(=O)C(C)C(OC2CC(C)(OC)CC(C)O2)C(C)C(OC2OC(C)CC(N(C)C)C2O)C(C)(O)CC(C)C(=O)C(C)C2OC(=O)OC12C (stereo not shown) [4"-deoxyerythromycin A 11,12-carbonate]
MIC: 12.5 µg/mL (≈ 16.8 µM)
